Experimental findings from patent US20240165096A1, “Anti Viral Therapy” (priority 2021, published 2024) are described below.

This series concerns IFNλ.

The structures appear in SMILES notation. Counter-ions that a name gives are not always drawn.

As to `O=C(O)COCCN1CCN([C@H](c2ccccc2)c2ccc(Cl)cc2)CC1` [Levocetirizine Dihydrochloride], the enhancement of cytotoxicity was about 1.5 fold.
